Several values for one entry are separate records, joined by “and”; a condition that tells them apart may be missing. Equal values may be shown once. Read-outs that look alike come from different tables or passages of the source.

Data set [1] relates to FITC-LANA 1-23 peptide (tracer) (Kaposi's sarcoma-associated herpesvirus). The experiment in a line: fluorescence anisotropy.
Data set [2] has as its target purified chicken nucleosomes (histone H2A/H2B binding site).
Data set [3] concerns FITC-LANA 1-23 peptide (tracer) (Kaposi's sarcoma-associated herpesvirus). The experiment in a line: fluorescence anisotropy. This is another data set of the same source. In general terms: Polarisation of emitted light reports the rotation of a fluorescent probe.
Data set [4] addresses purified chicken nucleosomes (from chicken erythrocytes) (chicken (endogenous in erythrocytes)). As to the kind of experiment: fluorescence polarisation.
In data set [5] the target is trypsin digested nucleosomes lacking histone tails (chicken (endogenous in erythrocytes)). The experiment in a line: fluorescence polarisation.
In data set [6] the target is purified chicken nucleosomes (from chicken erythrocytes) (chicken (endogenous in erythrocytes)). The experiment in a line: fluorescence polarisation. The source holds these as a separate data set.

In data set [1] (histone tails removed by partial trypsin digestion, DNA not modified), “chicken nucleosomes, trypsin-digested (histone tails removed)” showed a Kd of 260 nM.
“chicken nucleosomes, trypsin inactivated (inhibitor added first)” registered a Kd in data set [1] of 283 nM.
As to “[FITC]-Beta alanine-MAPPGMRLRSGRSTGAPLTRGSC-[NH2] [FITC LANA1-23]”, the Kd was 260 nM in data set [2] (read-out: Kd for LANA peptide binding after trypsin digestion of nucleosomes), 283 nM in data set [2] (read-out: Kd for LANA peptide binding when protease inhibitor was added prior to trypsin), 246 nM in data set [2] (read-out: Kd for LANA tracer binding to intact nucleosomes) and 184 nM in data set [2] (read-out: Kd for N-LANA peptide binding to its histone H2A/H2B binding site).
Take chicken erythrocyte nucleosomes, intact: the Kd in data set [3] came out at 184 nM; in data set [1] it was 246 nM.
Turning to FITC LANA1-23 peptide tracer, the Kd in data set [4] was 246 nM and 283 nM; in data set [5], 260 nM; in data set [6], 184 nM.

(Values after paper PMC4656118 (Journal of biomolecular screening, 2014).)
